Biological target: low density lipoprotein receptor-related protein 1 (LRP1), full-length, purified from human placenta (human) (UniProt Q07954)
Experiment: SPR; Biacore 8K; full-length LRP1 immobilised via amine coupling on a CM5 sensorchip; tau proteins (3.7, 11.1, 33.3 nM) flowed over in a single cycle kinetic titration at pH 7.4; apparent KD from nonlinear regression of Rmax vs concentration

Protein sequences, listed by entry. Tags and fused reporters are not part of them. Residues count along the entry.
UniProt Q07954, 20-4544: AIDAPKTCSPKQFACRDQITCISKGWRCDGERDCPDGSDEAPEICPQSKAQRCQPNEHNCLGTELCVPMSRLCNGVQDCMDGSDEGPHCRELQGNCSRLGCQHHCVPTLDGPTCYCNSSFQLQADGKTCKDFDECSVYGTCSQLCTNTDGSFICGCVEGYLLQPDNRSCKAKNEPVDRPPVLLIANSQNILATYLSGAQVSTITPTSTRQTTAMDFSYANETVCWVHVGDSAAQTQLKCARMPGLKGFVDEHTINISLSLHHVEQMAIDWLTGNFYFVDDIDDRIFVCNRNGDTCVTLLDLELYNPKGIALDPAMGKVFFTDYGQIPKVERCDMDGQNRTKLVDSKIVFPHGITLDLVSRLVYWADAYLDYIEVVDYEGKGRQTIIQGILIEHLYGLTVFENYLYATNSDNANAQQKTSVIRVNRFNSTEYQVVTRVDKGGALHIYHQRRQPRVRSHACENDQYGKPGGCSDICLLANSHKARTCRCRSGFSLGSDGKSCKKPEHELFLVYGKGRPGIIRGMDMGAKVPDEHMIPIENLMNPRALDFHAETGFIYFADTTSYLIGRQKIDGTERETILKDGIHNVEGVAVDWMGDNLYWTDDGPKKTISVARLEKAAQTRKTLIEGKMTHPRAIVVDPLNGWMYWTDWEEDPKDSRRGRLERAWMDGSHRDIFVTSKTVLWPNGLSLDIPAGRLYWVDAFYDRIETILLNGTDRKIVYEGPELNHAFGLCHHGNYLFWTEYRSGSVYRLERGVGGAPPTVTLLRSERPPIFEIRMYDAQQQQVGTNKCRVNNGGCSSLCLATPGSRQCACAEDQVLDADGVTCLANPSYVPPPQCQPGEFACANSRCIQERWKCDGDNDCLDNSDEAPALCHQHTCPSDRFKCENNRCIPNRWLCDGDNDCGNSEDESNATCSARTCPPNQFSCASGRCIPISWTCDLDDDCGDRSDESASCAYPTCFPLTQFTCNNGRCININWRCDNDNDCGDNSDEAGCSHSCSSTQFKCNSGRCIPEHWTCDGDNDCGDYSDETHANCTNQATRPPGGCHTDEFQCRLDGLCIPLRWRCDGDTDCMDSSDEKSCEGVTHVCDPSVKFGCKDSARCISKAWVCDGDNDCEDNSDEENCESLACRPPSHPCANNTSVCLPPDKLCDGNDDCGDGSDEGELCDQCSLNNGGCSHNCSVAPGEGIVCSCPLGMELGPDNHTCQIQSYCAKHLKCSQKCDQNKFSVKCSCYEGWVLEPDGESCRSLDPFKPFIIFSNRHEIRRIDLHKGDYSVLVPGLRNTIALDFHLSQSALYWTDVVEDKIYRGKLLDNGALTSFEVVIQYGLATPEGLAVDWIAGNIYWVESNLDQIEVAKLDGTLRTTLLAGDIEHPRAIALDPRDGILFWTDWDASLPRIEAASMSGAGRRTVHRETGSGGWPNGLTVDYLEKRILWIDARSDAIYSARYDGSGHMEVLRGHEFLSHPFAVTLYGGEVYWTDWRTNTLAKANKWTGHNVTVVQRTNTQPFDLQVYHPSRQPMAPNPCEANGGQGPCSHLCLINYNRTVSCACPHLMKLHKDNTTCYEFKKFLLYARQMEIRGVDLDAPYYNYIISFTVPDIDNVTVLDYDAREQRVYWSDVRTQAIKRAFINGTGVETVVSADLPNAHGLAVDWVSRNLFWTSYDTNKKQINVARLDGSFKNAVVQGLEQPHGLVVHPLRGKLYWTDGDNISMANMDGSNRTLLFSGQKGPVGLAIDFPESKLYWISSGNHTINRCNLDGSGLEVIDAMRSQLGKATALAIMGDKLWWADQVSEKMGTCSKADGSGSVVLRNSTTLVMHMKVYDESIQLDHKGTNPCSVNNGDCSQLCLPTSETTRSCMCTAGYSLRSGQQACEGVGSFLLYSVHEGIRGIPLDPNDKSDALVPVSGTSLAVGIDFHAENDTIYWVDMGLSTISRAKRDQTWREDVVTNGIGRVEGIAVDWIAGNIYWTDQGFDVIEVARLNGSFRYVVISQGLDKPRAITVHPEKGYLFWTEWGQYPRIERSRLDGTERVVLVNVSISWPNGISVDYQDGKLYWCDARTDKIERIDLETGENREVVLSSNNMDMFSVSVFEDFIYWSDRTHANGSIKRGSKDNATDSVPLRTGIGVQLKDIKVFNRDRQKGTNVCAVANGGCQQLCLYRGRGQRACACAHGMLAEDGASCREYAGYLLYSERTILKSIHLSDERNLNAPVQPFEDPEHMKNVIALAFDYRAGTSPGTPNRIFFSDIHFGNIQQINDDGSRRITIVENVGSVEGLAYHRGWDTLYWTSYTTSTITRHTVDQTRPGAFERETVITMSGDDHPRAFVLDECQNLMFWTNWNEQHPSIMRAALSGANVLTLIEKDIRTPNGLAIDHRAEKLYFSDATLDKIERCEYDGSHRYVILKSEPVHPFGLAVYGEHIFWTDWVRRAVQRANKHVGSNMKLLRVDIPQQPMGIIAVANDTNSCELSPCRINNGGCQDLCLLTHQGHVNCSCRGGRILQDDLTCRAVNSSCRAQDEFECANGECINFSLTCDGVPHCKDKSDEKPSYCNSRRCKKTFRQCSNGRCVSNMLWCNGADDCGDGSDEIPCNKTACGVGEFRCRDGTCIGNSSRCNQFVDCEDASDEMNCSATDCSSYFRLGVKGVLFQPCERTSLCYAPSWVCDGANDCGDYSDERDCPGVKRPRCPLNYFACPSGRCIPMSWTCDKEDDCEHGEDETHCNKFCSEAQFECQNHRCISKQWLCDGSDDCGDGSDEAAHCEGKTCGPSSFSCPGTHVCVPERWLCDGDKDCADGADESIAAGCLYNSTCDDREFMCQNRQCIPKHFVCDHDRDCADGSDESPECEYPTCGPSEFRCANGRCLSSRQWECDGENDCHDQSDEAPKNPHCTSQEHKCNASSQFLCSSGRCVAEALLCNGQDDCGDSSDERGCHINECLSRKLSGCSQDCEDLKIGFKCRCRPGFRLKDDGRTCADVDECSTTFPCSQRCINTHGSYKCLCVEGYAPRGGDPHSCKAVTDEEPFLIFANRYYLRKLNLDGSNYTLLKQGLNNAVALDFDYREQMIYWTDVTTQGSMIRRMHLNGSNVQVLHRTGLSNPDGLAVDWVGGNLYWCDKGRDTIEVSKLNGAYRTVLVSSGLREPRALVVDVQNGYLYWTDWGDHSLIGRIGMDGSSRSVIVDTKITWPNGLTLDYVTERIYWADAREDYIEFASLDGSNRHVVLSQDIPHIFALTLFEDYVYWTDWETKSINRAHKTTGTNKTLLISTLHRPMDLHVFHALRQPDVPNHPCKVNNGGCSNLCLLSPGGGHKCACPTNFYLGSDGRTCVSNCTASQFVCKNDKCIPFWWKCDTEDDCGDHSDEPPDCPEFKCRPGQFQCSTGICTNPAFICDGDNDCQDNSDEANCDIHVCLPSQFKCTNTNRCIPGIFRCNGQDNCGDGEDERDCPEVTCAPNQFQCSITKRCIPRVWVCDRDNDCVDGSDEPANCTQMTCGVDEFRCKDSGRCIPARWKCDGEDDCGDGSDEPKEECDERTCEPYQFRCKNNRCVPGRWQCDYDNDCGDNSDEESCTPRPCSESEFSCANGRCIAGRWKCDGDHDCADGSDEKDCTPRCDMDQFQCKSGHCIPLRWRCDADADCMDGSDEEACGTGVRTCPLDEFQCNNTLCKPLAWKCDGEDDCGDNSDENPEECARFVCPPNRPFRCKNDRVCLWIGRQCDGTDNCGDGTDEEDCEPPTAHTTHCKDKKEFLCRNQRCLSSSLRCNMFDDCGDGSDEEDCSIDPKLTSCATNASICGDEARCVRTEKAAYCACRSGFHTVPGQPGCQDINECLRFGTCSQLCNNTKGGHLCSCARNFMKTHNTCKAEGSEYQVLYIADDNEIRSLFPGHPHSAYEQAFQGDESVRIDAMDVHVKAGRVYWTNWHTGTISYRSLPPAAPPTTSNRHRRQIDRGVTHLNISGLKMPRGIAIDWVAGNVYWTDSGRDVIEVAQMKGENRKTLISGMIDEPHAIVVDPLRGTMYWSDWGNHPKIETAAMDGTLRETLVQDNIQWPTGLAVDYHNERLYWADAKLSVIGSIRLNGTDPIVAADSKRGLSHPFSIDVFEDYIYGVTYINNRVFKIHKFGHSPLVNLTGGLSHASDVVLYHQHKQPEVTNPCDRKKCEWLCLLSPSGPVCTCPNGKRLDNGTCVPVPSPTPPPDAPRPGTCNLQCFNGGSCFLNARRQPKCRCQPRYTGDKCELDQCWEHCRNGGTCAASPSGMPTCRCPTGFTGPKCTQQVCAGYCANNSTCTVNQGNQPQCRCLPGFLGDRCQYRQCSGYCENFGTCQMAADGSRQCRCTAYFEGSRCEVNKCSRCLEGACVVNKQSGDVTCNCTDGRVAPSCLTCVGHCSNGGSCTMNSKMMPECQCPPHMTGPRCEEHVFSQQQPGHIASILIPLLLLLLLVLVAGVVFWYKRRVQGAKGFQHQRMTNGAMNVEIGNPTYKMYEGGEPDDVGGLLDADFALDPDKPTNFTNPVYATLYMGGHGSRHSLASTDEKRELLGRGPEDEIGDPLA

- Kd: 6 nM
Substance: full-length 2N4R tau, wildtype sequence (recombinant, without HiBiT-tag) (from UniProt P10636-8 1-441) (natural protein)

From paper PMC12096005
